Measurements from paper PMC6470842 (Pharmaceutics, 2019).

Legend:
[1] = Tissue distribution of PA and NAPA at steady state (Kp,ss); settings: rats, 60 min
[2] = PBPK model input parameters for PA and NAPA; settings: Kp,ss corrected with ER

SMILES: CCN(CC)CCNC(=O)c1ccc(N)cc1 [PA, procainamide]
- Kp,ss Brain ([1]; PA HCl infusion 2.5 mg/kg/hr, control (without cimetidine)): 0.200 ± 0.0208
- Kp,ss Brain ([1]; PA HCl infusion, co-treatment with cimetidine 100 mg/kg iv): 0.246 ± 0.0584
- Kp,ss Heart ([1]; PA HCl infusion, control): 3.45 ± 1.19
- Kp,ss Kidney ([1]; PA HCl infusion, control): 5.68 ± 2.01
- Kp,ss Liver ([1]; PA HCl infusion, control): 2.86 ± 2.11
- Kp,ss Lung ([1]; PA HCl infusion, control): 2.52 ± 1.10
- Kp,ss Spleen ([1]; PA HCl infusion, control): 1.34 ± 0.424
- Kp Kidney [2]: 8.31
- Kp Liver [2]: 11.7
